Laboratory results as given in patent publication US11548001B1, “Air to liquid micro-fluidic chamber” (dated 2023).

Chains of the proteins cited; added tags and fusions are not shown. Residues count along the entry.
UniProt P22303, 32-614 limits assumed: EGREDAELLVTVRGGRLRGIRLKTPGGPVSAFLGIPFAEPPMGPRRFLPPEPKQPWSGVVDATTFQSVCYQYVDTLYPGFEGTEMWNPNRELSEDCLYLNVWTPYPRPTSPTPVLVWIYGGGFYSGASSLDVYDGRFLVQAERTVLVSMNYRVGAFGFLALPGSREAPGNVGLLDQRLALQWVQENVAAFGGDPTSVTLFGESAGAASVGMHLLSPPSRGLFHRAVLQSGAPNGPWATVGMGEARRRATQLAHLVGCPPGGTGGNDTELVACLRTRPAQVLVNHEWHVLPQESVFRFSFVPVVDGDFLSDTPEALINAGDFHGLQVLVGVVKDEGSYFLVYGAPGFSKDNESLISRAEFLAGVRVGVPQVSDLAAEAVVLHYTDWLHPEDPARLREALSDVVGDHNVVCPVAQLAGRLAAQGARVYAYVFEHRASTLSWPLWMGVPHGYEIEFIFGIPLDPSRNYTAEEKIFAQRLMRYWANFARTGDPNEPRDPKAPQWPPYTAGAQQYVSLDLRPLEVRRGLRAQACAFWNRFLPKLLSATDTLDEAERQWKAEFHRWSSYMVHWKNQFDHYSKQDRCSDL

Target: acetylcholinesterase (AChE) (Homo sapiens, UniProt P22303)
Experiment: Organo-phosphate inhibition of immobilized AChE in microchannel reactor (AChE/COX/HRP chain reaction, fluorescence read-out)

For CCCCOP(=O)(OCCCC)OCCCC, the “fluorescent intensity as inhibitor solubilized flow passes into the microchannel reactor” value (TBP as inhibition substrate, hexane/water hybrid flow, reactant flow rate ~50 μL/min, excitation 550 nm, emission ~600 nm) was “fluorescent intensity is observed to decrease”, the “fluorescence signal (current) after injection of TBP collected from air” value (TBP collected from air into hexane, syringe injected after 400 sec stationary phase, FIG. 17) was “inhibition of AChE occurs” and the “fluorescence (photodetector current) after start of inhibition” value (~200 pM TBP, time 0 = starting point of inhibition, FIG. 16B) was “the fluorescence changes”.
